This note sets out measurements from patent US8324235B2, “Heterocyclic spiro-compounds” (Novartis AG, priority 2007, dated 2012).

The chains behind the UniProt entries cited, without tags or fusion partners.
UniProt P11511, whole entry: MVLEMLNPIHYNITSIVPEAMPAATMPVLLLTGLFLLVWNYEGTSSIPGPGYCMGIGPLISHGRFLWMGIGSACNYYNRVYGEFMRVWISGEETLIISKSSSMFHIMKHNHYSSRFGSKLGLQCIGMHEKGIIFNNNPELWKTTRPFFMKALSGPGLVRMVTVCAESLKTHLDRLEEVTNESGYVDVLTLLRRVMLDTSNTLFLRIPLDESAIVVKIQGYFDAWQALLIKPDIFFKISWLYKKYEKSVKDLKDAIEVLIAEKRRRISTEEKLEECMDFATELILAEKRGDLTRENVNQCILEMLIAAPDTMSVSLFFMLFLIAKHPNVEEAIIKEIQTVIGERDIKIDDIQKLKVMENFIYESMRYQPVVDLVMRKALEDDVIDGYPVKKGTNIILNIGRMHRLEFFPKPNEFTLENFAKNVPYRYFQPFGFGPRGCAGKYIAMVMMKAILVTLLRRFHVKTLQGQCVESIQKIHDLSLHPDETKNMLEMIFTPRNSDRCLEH

As a reminder, the pIC50 is the negative decadic logarithm of the IC50, by convention in mol/L.

pIC50: −log10 of the molar value.

The target in this test is recombinant human Cyp19 enzyme (aromatase) (Homo sapiens, UniProt P11511). Nature of the test: Cyp19/MFC high throughput aromatase inhibition kit. The settings on record: read-out: IC50 value (aromatase inhibition), average of several measurements. As to the method:
The compounds of the formula (I′) have at least one asymmetric carbon atom, which is labelled “*”. A compound of the formula (I′) is to be understood as a compound having a specific configuration around the designated asymmetric carbon atom. If a synthesis method is used which leads to racemic compounds, the racemate resolution is carried out in accordance with conventional methods, such as via a chiral HPLC column. […] The aforementioned aromatase inhibitory activity can, as the skilled worker is well aware and as described below, be comfortably determined via the commercial Cyp19 enzyme inhibition kit (vide infra). In the abovementioned inhibition kit, compounds of the formula (I′) have an activity which is at least 10 times lower, preferably 20 times lower than the compounds of the formula (I′) with the opposite configuration around the asymmetric carbon atom labelled “*”.
The enzyme aromatese (CYP19) mediates the rate-limiting step of estrogen biosynthesis in human and rodent species. […]
The concentration-dependent interference of the compounds with aromatase can be measured in vitro using a commercial Cyp19 enzyme inhibition kit and the manufacturer's instructions. […]

With `N#Cc1ccc2c(c1)OCC21CCCn2cncc21` (stereo not shown), the pIC50 is 7.93.
